How the values were obtained:
[1] = target: SERT (Homo sapiens, UniProt P31645); assay: Receptor binding, SERT; settings: @ 100 nM
[2] = target: D2 (Homo sapiens, UniProt P14416); assay: Receptor binding, D2; settings: @ 100 nM

Chains of the proteins cited; added tags and fusions are not shown. Residues count along the entry.
UniProt P31645, whole entry: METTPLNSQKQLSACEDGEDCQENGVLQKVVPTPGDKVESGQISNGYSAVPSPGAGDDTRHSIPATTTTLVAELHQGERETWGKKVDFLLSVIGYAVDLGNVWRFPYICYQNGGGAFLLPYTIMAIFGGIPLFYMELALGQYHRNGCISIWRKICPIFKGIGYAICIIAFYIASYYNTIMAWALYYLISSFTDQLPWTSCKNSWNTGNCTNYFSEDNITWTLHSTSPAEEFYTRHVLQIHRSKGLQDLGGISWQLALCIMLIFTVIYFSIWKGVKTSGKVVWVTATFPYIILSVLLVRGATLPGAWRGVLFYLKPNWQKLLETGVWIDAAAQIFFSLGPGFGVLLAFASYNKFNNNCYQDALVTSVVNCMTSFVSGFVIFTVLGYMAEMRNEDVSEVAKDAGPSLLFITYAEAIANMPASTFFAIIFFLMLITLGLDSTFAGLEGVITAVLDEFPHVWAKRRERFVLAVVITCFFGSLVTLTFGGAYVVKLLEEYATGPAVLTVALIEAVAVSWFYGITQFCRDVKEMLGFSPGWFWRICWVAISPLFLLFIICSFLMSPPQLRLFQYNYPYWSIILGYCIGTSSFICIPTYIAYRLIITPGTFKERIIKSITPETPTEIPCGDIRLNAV
UniProt P14416, 1-414 isoform 2: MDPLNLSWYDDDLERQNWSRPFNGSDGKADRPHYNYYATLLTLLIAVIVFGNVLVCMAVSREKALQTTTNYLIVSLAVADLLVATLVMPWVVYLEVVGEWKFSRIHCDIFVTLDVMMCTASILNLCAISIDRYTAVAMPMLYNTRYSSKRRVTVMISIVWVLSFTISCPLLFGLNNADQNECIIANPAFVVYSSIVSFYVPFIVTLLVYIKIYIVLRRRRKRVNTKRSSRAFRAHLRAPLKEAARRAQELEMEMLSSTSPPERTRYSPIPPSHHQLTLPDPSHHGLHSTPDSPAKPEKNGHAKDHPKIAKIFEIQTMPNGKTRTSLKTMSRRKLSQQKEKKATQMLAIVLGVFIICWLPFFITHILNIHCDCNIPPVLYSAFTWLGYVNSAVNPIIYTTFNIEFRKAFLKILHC

Structure (SMILES)	maximum inhibition [1]	maximum inhibition [2]
O=C1CN2c3c(cccc3[C@@H]3CN(CCCOc4ccc(F)cc4O)CC[C@@H]32)N1	5% @	
O=C1CN2c3c(cccc3[C@@H]3CN(CCCOc4ccc(F)c(O)c4)CC[C@@H]32)N1		0% @

Reference: patent US12331052B2, “Organic compounds” (INTRA-CELLULAR THERAPIES, INC., priority 2018, dated 2025)
